Here are results for 1 molecule from paper PMC12920379 (2025).

The chains behind the UniProt entries cited, without tags or fusion partners.
UniProt P30550, whole entry, stated change not applied: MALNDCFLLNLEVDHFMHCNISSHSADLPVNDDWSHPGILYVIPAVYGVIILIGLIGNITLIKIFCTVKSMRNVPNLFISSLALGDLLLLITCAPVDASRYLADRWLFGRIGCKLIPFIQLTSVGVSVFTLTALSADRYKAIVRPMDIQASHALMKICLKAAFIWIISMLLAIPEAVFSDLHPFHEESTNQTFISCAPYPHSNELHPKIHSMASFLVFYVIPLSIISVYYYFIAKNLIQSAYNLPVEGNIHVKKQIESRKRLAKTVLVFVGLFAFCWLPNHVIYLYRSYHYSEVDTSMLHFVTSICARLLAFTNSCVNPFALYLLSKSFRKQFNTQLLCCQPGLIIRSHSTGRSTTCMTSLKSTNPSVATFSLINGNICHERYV

For orientation: Kd means the equilibrium constant for the complex coming apart. A higher Kd goes with a looser complex.

In this experiment the target is GRPR (T47D cells) (Homo sapiens, UniProt P30550). As to the kind of experiment: saturation binding on T47D cells at 4 °C.

B1: LF1 (nat/47Sc-LF1, statine-based GRPR antagonist) (peptide)
chain: FQWAVGHL
modifications: AAZTA5-Pip N-terminal chelator with nat/47Sc, D-Phe1, Sta between His and Leu, C-terminal NH2
Take B1: the Kd stood at 0.0106 µM.
